In assay [1] the target is T1, human mPGES-1 (Homo sapiens, UniProt O14684). Kind of assay: Microsomal prostaglandin E synthase assay. The conditions noted are these: read-out: h-CHO (nM); potency expressed as IC50; microsomes of CHO-K1 cells transfected with human mPGES-1; PGE2 by EIA; average of at least n=3. The format is biochemical.
Assay [2] addresses T1, human mPGES-1. Kind of assay: Human A549 whole cell prostaglandin E synthase assay. The conditions noted are these: read-out: IC50 of IL-1β induced mPGES-1 induced PGE2 synthesis; A549 human lung adenocarcinoma cells, IL-1β stimulated, 24 hours.

Amino acid sequences for entries named in this document (tags omitted).
UniProt O14684, whole entry: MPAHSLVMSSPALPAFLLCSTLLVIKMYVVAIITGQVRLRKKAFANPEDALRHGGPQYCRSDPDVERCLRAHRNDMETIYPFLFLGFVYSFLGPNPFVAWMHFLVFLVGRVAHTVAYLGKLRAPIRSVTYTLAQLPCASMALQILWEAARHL

Turning to `N#Cc1cccc(F)c1-c1nc2c3ccc(Cl)cc3c3ccccc3c2[nH]1`, the IC50 at human mPGES-1 [1] was found to be 2.1 nM.

With `CC(O)c1ccc2c(c1)c1cc(Cl)ccc1c1nc(-c3c(C#N)cccc3C#N)[nH]c21` (stereo not shown), the IC50 at human mPGES-1 [1] was determined as 4.8 nM.

On to `CC(O)C#Cc1ccc2c(c1)c1cc(Cl)ccc1c1[nH]c(-c3c(C#N)cccc3C#N)nc21` (stereo not shown), for which the IC50 at human mPGES-1 [1] was determined as 1.1 nM.

For `COCC#Cc1ccc2c(c1)c1cc(Cl)ccc1c1[nH]c(-c3c(C#N)cccc3C#N)nc21`, the IC50 on human mPGES-1 [1] amounted to 1.5 nM.

Regarding `CC(=O)C#Cc1ccc2c(c1)c1cc(Cl)ccc1c1[nH]c(-c3c(C#N)cccc3C#N)nc21`, the IC50 on human mPGES-1 [1] turned out to be 1.7 nM.

For `N#Cc1cccc(C#N)c1-c1nc2c3ccc(Cl)cc3c3cc(-c4ccc(N5CCOCC5)nc4)ccc3c2[nH]1`, the IC50 on human mPGES-1 [1] was determined as 1 nM.

`N#Cc1cccc(C#N)c1-c1nc2c3ccc(C#CC4(O)CCCC4)cc3c3cc(Cl)ccc3c2[nH]1`: at human mPGES-1 [1], the IC50 came to 0.9 nM.

For the molecule `CC(O)(c1ccc2c(c1)c1cc(Cl)ccc1c1[nH]c(-c3c(F)cccc3C#N)nc21)C(F)(F)F` (stereo not shown), the IC50 on human mPGES-1 [1] was 2 nM.

Regarding `CC(=O)c1ccc2c(c1)c1cc(Cl)ccc1c1nc(-c3c(F)cccc3C#N)[nH]c21`, on human mPGES-1 [1], the IC50 amounted to 13.1 nM.

Regarding `N#Cc1cccc(F)c1-c1nc2c3ccc(Br)cc3c3cc(Br)ccc3c2[nH]1`, the IC50 at human mPGES-1 [1] came to 1.9 nM.

On to `CC(C)(O)C#Cc1ccc2c(c1)c1cc(Br)ccc1c1[nH]c(-c3c(C#N)cccc3C#N)nc21`, for which the IC50 at human mPGES-1 [2] stood at 3.29 nM.

As to `N#Cc1cccc(Br)c1-c1nc2c3ccc(Cl)cc3c3cc([S+]([O-])C(F)(F)F)ccc3c2[nH]1` (stereo not shown), on human mPGES-1 [1], the IC50 is 3.7 nM.

Take `C=Cc1ccc2c(c1)c1ccccc1c1[nH]c(-c3c(C#N)cccc3C#N)nc21`: the IC50 at human mPGES-1 [1] is 1.7 nM.

In the case of `CC(C)(O)C#Cc1ccc2c(c1)c1cc(Br)ccc1c1[nH]c(-c3c(Cl)cccc3C#N)nc21`, the IC50 on human mPGES-1 [1] is 0.9 nM.

`CS(=O)(=O)c1ccc(-c2ccc3c(c2)c2cc(Cl)ccc2c2[nH]c(-c4c(C#N)cccc4C#N)nc32)cc1`: on human mPGES-1 [1], the IC50 was determined as 1.5 nM.

Turning to `N#Cc1cccc(C#N)c1-c1nc2c3ccc(C4CC4)cc3c3cc(Cl)ccc3c2[nH]1`, the IC50 at human mPGES-1 [1] was determined as 1.5 nM.

Turning to `CC(C)(O)c1ccc2c(c1)c1cc(Cl)ccc1c1nc(-c3c(F)cccc3C#N)[nH]c21`, on human mPGES-1 [1], the IC50 was 12 nM.

With `N#Cc1cccc(Cl)c1-c1nc2c3ccc(C#CC4(O)CCOCC4)cc3c3cc(Br)ccc3c2[nH]1`, the IC50 on human mPGES-1 [1] is 1.2 nM.

With `N#Cc1cncc(C#N)c1-c1nc2c3ccc(Cl)cc3c3ccccc3c2[nH]1`, at human mPGES-1 [1], the IC50 was determined as 2.1 nM.

Consider `N#Cc1cccc(C#N)c1-c1nc2c3ccc(C#Cc4cc[n+]([O-])cc4)cc3c3cc(Cl)ccc3c2[nH]1`, for which, at human mPGES-1 [1], the IC50 came to 2.4 nM.

Take `CC(=O)c1ccc2c(c1)c1cc(Cl)ccc1c1nc(-c3c(Br)cccc3C#N)[nH]c21`: the IC50 on human mPGES-1 [1] was 9.9 nM.

Turning to `CC(C)(O)c1cccc(-c2ccc3c(c2)c2cc(Cl)ccc2c2nc(-c4c(C#N)cccc4C#N)[nH]c32)c1`, on human mPGES-1 [1], the IC50 worked out at 1.2 nM.
